# Laboratory results reported in patent publication US20230295236A1, “COMPOUNDS FOR USE IN INFLAMMATORY CONDITIONS” (priority 2020, published 2023).
# Legend:
# [1] = Pharmacokinetics in plasma and lung, mice; type: in vivo, mouse
# [2] = system: SARS-CoV-2; experiment: Planned Phase II study of single-dose plitidepsin in adult COVID-19 patients at discharge from the Emergency Department; type: in vivo, human; conditions: single dose of plitidepsin (7.5 mg), day 6 after the administration; expected result of planned study
# [3] = system: IL-6, IL-10 and TNF-α secretion; experiment: Ex vivo LPS-B5-triggered cytokine secretion by bronchoalveolar lavage cells of treated mice; type: in vivo, mouse; conditions: mice 1 mg/kg i.v., BAL collected 12 hours after, ex vivo 15 µg/mL LPS-B5 for 3 or 6 hours
# [4] = system: WNV-GFP (lineage 2; molecular clone WN956); experiment: microbe, parasite or virus in culture; conditions: West Nile virus, Vero C1008, 48 h
# [5] = system: HCoV-229E; type: cell-based
# [6] = Pharmacokinetics in plasma and lung, hamsters; type: in vivo; conditions: hamster, single intravenous dose 0.2 mg/kg, read-out: lung-to-plasma ratio (lungAUC0-∞/plasmaAUC0-∞)
# [7] = system: SARS-CoV-2; experiment: Mouse models of SARS-CoV-2 infection (hACE2); type: in vivo
# [8] = system: NF-κB reporter (Luc)-THP-1 human monocytic cells; experiment: MTT cell proliferation assay (cytotoxicity control); type: cell-based; conditions: activators combined with 100 nM plitidepsin, 6 hours
# [9] = system: WNV-GFP (lineage 2; molecular clone WN956); experiment: microbe, parasite or virus in culture; type: cell-based, West Nile virus
# [10] = Cell biomass (DAPI) in Huh7 cells; type: cell-based, human; conditions: human, Huh7 hepatoma cells
# [11] = system: Huh7 human hepatoma cells; experiment: Cell biomass (DAPI) in Huh7 cells; type: cell-based; conditions: 48 hours
# [12] = Pharmacokinetics in plasma and lung, rats; type: in vivo; conditions: rat, single intravenous dose 0.2 mg/kg, read-out: lung-to-plasma ratio (lungAUC0-∞/plasmaAUC0-∞)
# [13] = system: Vero E6 cells; conditions: Vero E6 cells without virus, 3 days
# [14] = system: IL-1, IL-6, IL-8 and TNF-α secretion; experiment: ELISA for TLR-triggered secreted cytokines in THP-1 cells; type: cell-based, human; conditions: 100 nM plitidepsin, 6 hours; TNF-α stimulated THP-1 cells
# [15] = female, plasma, Mouse (F) C57BL6/J, 1.0 mg/kg single intravenous bolus
structure (smiles),measurement,setting,value
CC[C@H](C)[C@H]1NC(=O)[C@@H](NC(=O)[C@@H](CC(C)C)N(C)C(=O)[C@@H]2CCCN2C(=O)C(C)=O)[C@@H](C)OC(=O)[C@H](Cc2ccc(OC)cc2)N(C)C(=O)[C@@H]2CCCN2C(=O)[C@H](CC(C)C)NC(=O)[C@@H](C)C(=O)[C@H](C(C)C)OC(=O)C[C@@H]1O [plitidepsin],Kp,"[1]; C57BL6/J, mouse, lung and plasma, mice, single intravenous dose 1.0 mg/kg, read-out: lung-to-plasma ratio (lungAUC0-∞/plasmaAUC0-∞)",133
same,AUC(0-inf),[1]; [15],225 ng·h/mL
same,Cmax,[1]; [15],50.7 ng/mL
same,clearance,[1]; [15],73.3 mL/min/kg
same,Vd,"[1]; female, plasma, Mouse (F) C57BL6/J, 1.0 mg/kg single intravenous bolus, read-out: Vdss",102 L/kg
same,half-life,"[1]; female, plasma, Mouse (F) C57BL6/J, 1.0 mg/kg single intravenous bolus, read-out: t½ (converted)",18.2 h
same,Replication cycle threshold (Ct) value,[2],greater than 30
same,"LPS-B5-induced secretion of IL-6, IL-10 and TNF-α by BAL cells",[3],"failed to show a marked increase in IL 6, IL 10, and TNFα; also recorded: clearly inhibited the production of pro-inflammatory cytokines IL-6, and TNF-α; also recorded: significantly reduce the secretion of IL-6, IL-10 and TNFα"
same,EC50,[4]; read-out: EC50 infection efficiency,4.9 nM
same,EC90,[4]; read-out: EC90 infection efficiency,9.5 nM
same,Lowest concentration with antiviral effect,[5],≤ 0.5 nM and ≤ 0.555 µg/l
same,Kp,[6],909
same,Antiviral effects in vivo,[7]; mouse model of adenovirus-mediated hACE2 infected with SARS-CoV-2,potent antiviral effects in vivo
same,Antiviral effects in vivo,[7]; transgenic K18-hACE2 mice infected with SARS-CoV-2,potent antiviral effects in vivo
same,Survival (MTT assay),[8],No cytotoxic effect was detected
same,Therapeutic index,[9]; Huh7 cells,22
same,Concentration with antiviral activity in the absence of measurable interference with cell viability (p<0.05),[9]; Huh-7 cells,1.5 nM
same,EC50,"[9]; West Nile virus, Huh-7, Huh7 cells, 48 hours, MOI 0.01, read-out: EC50 infection efficiency",0.665 nM
same,EC90,"[9]; West Nile virus, Huh-7, Huh7 cells, 48 hours, MOI 0.01, read-out: EC90 infection efficiency",3.86 nM
same,CC50 at 48 h,[10],14.7 nM
same,Concentration at which loss of cell biomass is statistically significant (p<0.05),[11],7.2 nM
same,Kp,[12],460
same,Cytotoxic effects at concentrations inhibiting viral cytopathic effect,[13],no cytotoxic effects of the drug were observed
same,Secretion of IL-8 and TNF-α (ELISA),[14],unable to reduce IL-8 and TNF-α

# Several values for one entry are separate records, joined by “and”; a condition that tells them apart may be missing. Identical values can stand only once. Entries after “also recorded” stand apart in the source; their conditions may differ. Like-named read-outs stand apart in the source and are kept apart here.
